Experimental data: BindingDB's records for doi:10.1016/s0960-894x(98)00284-4 (Glaxowellcome, 1998)

Molecular target: Glutamate receptor ionotropic, NMDA 1 (Rattus norvegicus, UniProt P35439)
Assay: ChEBML_140329
Protocol: In vitro affinity of compound for the glycinergic site associated with NMDA receptor was assessed by inhibition of the binding of [3H]glycine

Ki: 8.5 nM
SMILES: O=C(/C=C/c1c(C(=O)O)[nH]c2cc(Cl)cc(Cl)c12)Nc1ccccc1 [GV-150526X]
